From paper PMC6099617, “Synthesis of Antibacterial Nisin–Peptoid Hybrids Using Click Methodology” (Molecules : A Journal of Synthetic Chemistry and Natural …, 2018)

What was measured:
epithelial HepG2 cells = assay: Cytotoxicity assay (alamarBlue cell viability), HepG2; type: cell-based; conditions: 1 hour with compound 2–100 µM, then 24 hours
Protocol: (§1) Cytotoxicity analyses were performed in 96-well plates (Costar, Fisher Scientific) using alamarBlue® (Invitrogen) for cell viability detection using a modified protocol as previously described.9 The HepG2 or HaCaT cells were grown at 37 °C, 5 % CO2 in DMEM10 high glucose supplemented with heat-inactivated foetal bovine sera (FBS, 10 %; Biosera Ltd) and penicillin/streptomycin (P/S, 1 %). Cells were counted using a Neubauer Improved Haemocytometer. Cells were seeded 1 day prior to treatment in 96 well plates at a concentration of 2 x 10^5 cells mL-1 in 100 µL of medium (2 x 10^4 cells/well). Empty wells were filled with 100 µL PBS. After 24 hours, cells were incubated with the compounds in a dilution series in triplicate from 2–100 µM (5 mM stock solutions in DMSO; untreated cells with DMSO as a negative control) in 50 µL of the media for 1 hour. Afterwards, 40 µL of medium was removed from each well before the addition of 90 µL of the media, followed by incubation for 24 hours at 37 °C, 5 % CO2. Then, 10 µL of alamarBlue® (Invitrogen) was added to each well before a 2 hour incubation prior to assessing cell viability using a fluorescent plate reader (Biotek; λex 560 nm, λem 600 nm).

HaCaT keratinocytes = assay: Cytotoxicity assay (alamarBlue cell viability), HaCaT; type: cell-based; conditions: 1 hour with compound 2–100 µM, then 24 hours
Protocol: as §1

[1] = test system: methicillin-resistant Staphylococcus aureus USA 300; conditions: for Reduction of antibacterial activity compared with the parent peptoid: MRSA USA300, 2a, 2b vs parent peptoids without alkyne, 6a vs 1a

Row | Compound | ED50 HepG2 (epithelial HepG2 cells) | ED50 HaCaT (HaCaT keratinocytes) | Reduction of antibacterial activity compared with the parent peptoid [1] | MIC S. aureus (USA300) ([1]; USA 300) [µM]
1 | C=C1NC(=O)[C@H]([C@@H](C)CC)NC(=O)[C@H](NC(=O)/C(=C/C)NC(=O)[C@@H](N)[C@@H](C)CC)CSC[C@@H](C(=O)N[C@H]2C(=O)N3CCC[C@H]3C(=O)NCC(=O)N[C@H](C(=O)N[C@@H](CCCCN)C(=O)NCCCn3cc(CNCC(=O)N(CC(=O)N(CC(=O)N(CCCCN)CC(=O)N(CC(=O)N(CC(=O)N(CCCCN)CC(=O)N(CC(=O)N(CC(=O)N(CCCCN)CC(=O)N(CC(=O)N(CC(=O)N(CCCCN)CC(=O)N(CC(=O)N(CC(N)=O)[C@@H](C)c4ccccc4)[C@@H](C)c4ccccc4)Cc4ccc(F)cc4)Cc4ccc(F)cc4)[C@@H](C)c4ccccc4)[C@@H](C)c4ccccc4)Cc4ccc(F)cc4)Cc4ccc(F)cc4)[C@@H](C)c4ccccc4)[C@@H](C)c4ccccc4)nn3)CS[C@H]2C)NC(=O)[C@H](CC(C)C)NC1=O [6b, Nisin[1,2,3,4,5,6,7,8,9, 10, 11, 12]-NspeNspe[(NLysNpfbNpfb)(NLysNspeNspe)]2] | 23 µM | 24 µM and 22 µM |  | 
2 | C=C1NC(=O)[C@H]([C@@H](C)CC)NC(=O)[C@H](NC(=O)/C(=C/C)NC(=O)[C@@H](N)[C@@H](C)CC)CSC[C@@H](C(=O)N[C@H]2C(=O)N3CCC[C@H]3C(=O)NCC(=O)N[C@H](C(=O)N[C@@H](CCCCN)C(=O)NCCCn3cc(CNCC(=O)N(CC(=O)N(CC(=O)N(CCN)CC(=O)N(CC(=O)N(CC(=O)N(CCN)CC(=O)N(CC(=O)N(CC(=O)N(CCN)CC(=O)N(CC(=O)N(CC(=O)N(CCN)CC(=O)N(CC(=O)N(CC(N)=O)[C@@H](C)c4ccccc4)[C@@H](C)c4ccccc4)[C@@H](C)c4ccccc4)[C@@H](C)c4ccccc4)[C@@H](C)c4ccccc4)[C@@H](C)c4ccccc4)[C@@H](C)c4ccccc4)[C@@H](C)c4ccccc4)[C@@H](C)c4ccccc4)[C@@H](C)c4ccccc4)nn3)CS[C@H]2C)NC(=O)[C@H](CC(C)C)NC1=O [6a, Nisin[1,2,3,4,5,6,7,8,9, 10, 11, 12]-NspeNspe(NaeNspeNspe)4] | 15 µM | 22 µM and 24 µM | approximately five-fold less active | 
3 | C#CCNCC(=O)N(CC(=O)N(CC(=O)N(CCCCN)CC(=O)N(CC(=O)N(CC(=O)N(CCCCN)CC(=O)N(CC(=O)N(CC(=O)N(CCCCN)CC(=O)N(CC(=O)N(CC(=O)N(CCCCN)CC(=O)N(CC(=O)N(CC(N)=O)[C@@H](C)c1ccccc1)[C@@H](C)c1ccccc1)Cc1ccc(F)cc1)Cc1ccc(F)cc1)[C@@H](C)c1ccccc1)[C@@H](C)c1ccccc1)Cc1ccc(F)cc1)Cc1ccc(F)cc1)[C@@H](C)c1ccccc1)[C@@H](C)c1ccccc1 [2b, NprpNspeNspe[(NLysNpfbNpfb)(NLysNspeNspe)]2] | < 20 µM and 17 µM | < 20 µM and 15 µM | ~2 fold | 4 to 7

Values joined by “and” are separate entries in the source; they are usually repeats but may differ in a detail not shown here. Equal entries are not always repeated.
